The source of these data is publication PMC7127853 (Bioorganic & Medicinal Chemistry, 2011).

The subject of this assay is human cytomegalovirus (HCMV) strain AD-169. Briefly: Antiviral assay, HCMV AD-169 in HEL cells. Type of assay: cell-based.

In the case of `Nc1ncnc2c1ncn2CCOCP(=O)(O)OCCOCCCCCCCCCCO` [Compound 7, 2-[(10-Hydroxydecyl)oxy]ethyl ester of 9-[2-(phosphonomethoxy)ethyl]adenine], the “Activity against CMV (in words)” value is “totally inactive”.
